# Results reported in US20260191848A1, “METHODS OF REVERSING PARP-RESISTANCE IN CANCER” (THE TRUSTEES OF COLUMBIA UNIVERSITY IN THE CITY OF NEW YORK, priority 2023, published 2026).
# Experiments:
# [1] = tested on: Bard1-def breast cancer cell lines; experiment: In vitro cell viability assay (MTS), Bard1-def sensitive vs resistant lines; assay type: cell-based, mouse; conditions: 0 to 10,000 nM talazoparib, 7 days
# [2] = tested on: Brca1-def Tal-sensitive tumors; experiment: In-vivo PARPi-response-and-recurrence model, Brca1-def orthotopic allograft (talazoparib-sensitive); conditions: talazoparib 0.3 mg/kg body weight/day, five days/week, oral gavage, from 14 days post tumor-cell injection, vs vehicle
# [3] = tested on: Bard1-def Tal-sensitive tumors; experiment: In-vivo PARPi-response-and-recurrence model, Bard1-def orthotopic allograft (talazoparib-sensitive); conditions: talazoparib 0.3 mg/kg body weight/day, five days/week, oral gavage, from 7 days post tumor-cell injection, vs vehicle
# [4] = tested on: Brca1-def breast cancer cell lines; experiment: In vitro cell viability assay (MTS), Brca1-def sensitive vs resistant lines; assay type: cell-based, mouse; conditions: 0 to 10,000 nM talazoparib, 7 days
structure (smiles),measurement,setting,value
Cn1ncnc1[C@H]1c2n[nH]c(=O)c3cc(F)cc(c23)N[C@@H]1c1ccc(F)cc1 [talazoparib],difference in response to talazoparib between PARPi-sensitive and -resistant lines (cell viability),[1],only a modest difference
same,tumor growth,[2],inhibited tumor growth in mice for several weeks
same,tumor growth,[3],inhibited tumor growth in mice for several weeks
same,difference in response to talazoparib between PARPi-sensitive and -resistant lines (cell viability),[4],only a modest difference
